## Apparent affinities of Ab-95 variants for a coronavirus HR2 peptide

Antigen: PDVDLGDISGINAS, a 14-residue peptide of the SARS-CoV-2 spike HR2 region.

The variants keep the heavy chain, the linker and the frameworks of Ab-95 (scFv order VH, the linker GGGGSGGGGSGGGGS, VL).
VH: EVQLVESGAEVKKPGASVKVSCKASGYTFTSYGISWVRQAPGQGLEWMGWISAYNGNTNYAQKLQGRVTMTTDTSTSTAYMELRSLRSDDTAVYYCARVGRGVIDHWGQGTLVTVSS
VL: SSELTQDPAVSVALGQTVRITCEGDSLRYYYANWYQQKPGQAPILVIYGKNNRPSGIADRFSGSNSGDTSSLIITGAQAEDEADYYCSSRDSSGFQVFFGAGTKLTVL

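Phage display of a naive human antibody library on the peptide gave the parent. In library AAYL52, one, two or three CDR residues were substituted; doubles and triples were drawn at random. In AlphaSeq, yeast of one mating type display the scFv and yeast of the other type display the target. The frequency of each diploid, read from paired DNA barcodes, reflects how well the two displayed proteins bind. Read counts were normalised to the haploid input and turned into Kd by a linear fit to BCL2-family pairs of known affinity, for each replicate. The assay was run in three technical replicates.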

The parent's light chain CDRs are EGDSLRYYYAN, GKNNRPS, SSRDSSGFQVF; each variant's own CDRs replace them letter for letter.
Values are apparent Kd, the geometric mean of the replicates that gave a signal; lower means stronger binding.
Where no diploid with the target was found in any replicate, the entry reads "nd": below detection, most likely a poor binder, though not proof of it.
Three control strains display no target. For library AAYL52, 28% of the pairings with them gave a signal, with a median of 8.2 µM and one signal in twenty below 800 nM, so weak values seen in few replicates may be background. For each scFv, signals with the empty controls are counted beside the result.
Parent in this assay: reference entry 200 nM, copy in this library 180 nM.

CDR-L1	CDR-L2	CDR-L3	Kd (apparent)	seen in	empty controls
EGDSLRYYYAN	GHNNRMF	SSRDSSGFQVF	800 nM	3/3	0/9
IGDSLRYYYAN	GKNNRTS	SSRDSSGFQTF	3.6 µM	1/3	0/9
EGDSLRYYYAN	GKNNIPS	SSTDSSGFQVF	8.6 µM	1/3	2/9
EGDSLRMYYAN	GKNDRPS	SSRDSSGFQDF	5.4 µM	1/3	1/9
EGDSLRYYYAN	GKTNRPS	SSRDSSMFQVF	19 µM	2/3	2/9
EGDSLCYYYAN	GKNNRPA	SSWDSSGFQVF	220 nM	3/3	1/9
ERDSLRYYYAN	GKNNRPS	SHRDSSGFQVF	1.3 µM	1/3	0/9
EGDSLRYVGAN	GKLNRPS	SSRDSSGFQVF	2.0 µM	3/3	2/9
EMDSLRYYVAN	SKNNRPS	SSRDSSGFQVF	4.3 µM	2/3	1/9
EGDSLRYYYAN	GHNNGVS	SSRDSSGFQVF	30 µM	3/3	3/9
EGCSLRFYYAN	GKNNRPS	SSRDSSGHQVF	nd	0/3	1/9
EGDQLRYYYAN	GKTNRPS	SSRDSSGFQEF	4.0 µM	3/3	5/9
EGDSLRYYYAN	GQNNRPS	SSSDSSGFQVS	1.2 µM	1/3	3/9
EGDSLFYYYAN	GCNNRPK	SSRDSSGFQVF	870 nM	1/3	4/9
EGDSGRYYYAN	GKNSRWS	SSRDSSGFQVF	13 µM	2/3	3/9
EGDSLIPYYHN	GKNNRPS	SSRDSSGFQVF	600 nM	2/3	1/9
EGDSLRYYYAN	GKNNRPS	SSRDSSGNQSF	12 µM	1/3	3/9
EGDWDRYYYAN	GKNNRPS	SSRWSSGFQVF	2.5 µM	3/3	1/9
WGNSLRYYYQN	GKNNRPS	SSRDSSGFQVF	nd	0/3	4/9
EGDSLRYYYAL	GKNHRPS	SSRGSSGFQVF	19 µM	1/3	2/9
WGWSLRYYYAN	GKNNRPQ	SSRDSSGFQVF	nd	0/3	1/9
EGDSLRYYYGN	GKNTRPS	SSRDSSGCQVF	7.2 µM	3/3	1/9
EGDSLRYYRAN	GWNNYPS	SSRDSSGFQVF	4.2 µM	2/3	4/9
EGDAVRYYYAN	GKNNRPS	GSRDSSGFQVF	890 nM	3/3	3/9
EGDSLRYYYAN	GKNHWPS	SSRDSSGPQVF	2.8 µM	2/3	2/9
ECDSLRYYYAN	GKNNESS	SSRDSSGFQVF	2.4 µM	1/3	1/9
EGDSLRYYYAN	GKNMRPS	SSRDSRGYQVF	230 nM	3/3	5/9
GGDSLRYYYAN	GKNNRPS	SSRDSSGFGHF	1.6 µM	1/3	3/9
EGDSLIYYYAN	GKNNRPV	SSYDSSGFQVF	2.3 µM	1/3	0/9

Continued, with the values leading:

Kd (apparent)	seen in	empty controls	CDR-L1	CDR-L2	CDR-L3
1.3 µM	3/3	2/9	EGESARYYHAN	GKNNRPS	SSRDSSGFQVF
19 µM	1/3	2/9	EGDSLRYYYAN	GKTNRES	SSCDSSGFQVF
1.3 µM	3/3	6/9	EGDSLNYYYAN	GKNNRPS	SWRDSSGFRVF
nd	0/3	2/9	EGDSTRFYYAN	GKNNRPS	SSDDSSGFQVF
nd	0/3	5/9	EGSSLRYYYAN	IKNNRPS	SSRDLSGFQVF
5.9 µM	3/3	3/9	EYDSLRYYYAN	GKNNRPC	SSRDSSGFQVF
65 µM	2/3	4/9	EGDSRRYYYAN	GFNNRPS	SNRDSSGFQVF
nd	0/3	2/9	ERDSLRFYYAV	GKNNRPS	SSRDSSGFQVF
2.3 µM	2/3	2/9	EGDSLRIYYNN	GKNNRPS	SSRDSSGCQVF
61 µM	1/3	3/9	EEDSLRKYYAN	WKNNRPS	SSRDSSGFQVF
nd	0/3	2/9	EGDSLRYYAAN	KKNNRPS	SSRDSSGFQRF
8.9 µM	2/3	2/9	SGDSLRYYYAN	GKNNRPS	GSEDSSGFQVF
96 µM	1/3	4/9	KGDSARYYYAC	GKNNRPS	SSRDSSGFQVF
38 µM	3/3	5/9	EDDSLRYYYLN	IKNNRPS	SSRDSSGFQVF
nd	0/3	1/9	EGDSPRYYYAN	GKNNHPS	SSRDYSGFQVF
6.6 µM	3/3	1/9	EGMSLRYCYAN	GKNNRPS	SSRDSSGFQVK
5.0 µM	2/3	4/9	EGYSLRYYYAN	GKNNFPS	SSRDSSGFMVF
3.9 µM	3/3	3/9	EGDHLRYYYAD	GKNPRPS	SSRDSSGFQVF
91 µM	2/3	2/9	EGDSLRYYHAN	GKNPRPS	SSFDSSGFQVF
1.4 µM	3/3	4/9	KGDSLRYYYAN	GKNNRPS	SSRDSSKFQVG
170 nM	3/3	0/9	EGDSLAYYYAN	GKNNRPY	ESRDSSGFQVF
570 nM	2/3	2/9	EGDSLRYYYAN	GKNNRPG	SSRDSSGFQMD
nd	0/3	4/9	EGDSLRYYYAN	YKNNRPS	SSRDSSGFIVF
920 nM	2/3	0/9	EGDSLRYYYAN	GKNNRPE	SSRDSSGFRFF
14 µM	1/3	3/9	FGDMLRYYYAN	GKNNRPS	SSPDSSGFQVF
nd	0/3	2/9	EACSLRYYYAN	GKNNRPS	SSRKSSGFQVF
230 nM	3/3	3/9	EGDSLRYYYAN	GKNNRPS	SSGDSSGFMVF
1.9 µM	3/3	1/9	EGTSLRYWYAN	GKNNRPS	SSRDLSGFQVF
25 µM	2/3	2/9	EGDSLRYYYEN	GKNNRPS	SWRDSSEFQVF
nd	0/3	1/9	EGDSLRYYAAN	GKNNRPS	SSRDSSRFDVF

The first 6 variants above that were never detected:

{"CDR-L1": "EGCSLRFYYAN", "CDR-L2": "GKNNRPS", "CDR-L3": "SSRDSSGHQVF", "Kd (apparent)": "nd", "seen in": "0/3", "empty controls": "1/9"}
{"CDR-L1": "WGNSLRYYYQN", "CDR-L2": "GKNNRPS", "CDR-L3": "SSRDSSGFQVF", "Kd (apparent)": "nd", "seen in": "0/3", "empty controls": "4/9"}
{"CDR-L1": "WGWSLRYYYAN", "CDR-L2": "GKNNRPQ", "CDR-L3": "SSRDSSGFQVF", "Kd (apparent)": "nd", "seen in": "0/3", "empty controls": "1/9"}
{"CDR-L1": "EGDSTRFYYAN", "CDR-L2": "GKNNRPS", "CDR-L3": "SSDDSSGFQVF", "Kd (apparent)": "nd", "seen in": "0/3", "empty controls": "2/9"}
{"CDR-L1": "EGSSLRYYYAN", "CDR-L2": "IKNNRPS", "CDR-L3": "SSRDLSGFQVF", "Kd (apparent)": "nd", "seen in": "0/3", "empty controls": "5/9"}
{"CDR-L1": "ERDSLRFYYAV", "CDR-L2": "GKNNRPS", "CDR-L3": "SSRDSSGFQVF", "Kd (apparent)": "nd", "seen in": "0/3", "empty controls": "2/9"}

Source: Engelhart et al. 2022 (doi:10.1038/s41597-022-01779-4), MIT Lincoln Laboratory and A-Alpha Bio; data file from the FLAb repository.